Assay outcomes from PubChem BioAssay.
MC4R antag cAMP – MC4R antagonists of cAMP signaling, primary screen, cell-based, TR-FRET, antagonist arm of biased-ligand search; AID 540295, 2011; MC4R-expressing cells, MTII-stimulated cAMP, LANCE TR-FRET; inhibition, % at 6.5 µM; Melanocortin receptor 4 (Homo sapiens), P32245; hit rate 0.48% among 360,000;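 active means inhibition above its plate's cutoff, the mean of tested wells on that plate plus 3 SD, cut at about 29% in these data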;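 further: 0% = Melanotan II alone and 100% = Melanotan II plus saturating MCL0020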
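system = U2OS cells with stable human MC4R expression | also added = Melanotan II challenge after compound preincubation | dosing = one concentration, 6.5 µM nominal | incubation = compound 30 min, challenge 1 h, detection 1 h | measured by = TR-FRET with Eu-cAMP and labeled anti-cAMP, 671 nm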
MC4R barr agon – MC4R agonists recruiting beta-arrestin, primary screen, cell-based, luminescence, agonist arm of biased-ligand search; U2OS MC4R beta-arrestin complementation; percent of melanotan II response, DMSO zero; AID 540308, 2011; hit rate 0.98% among 360,000; activation, % at 8.9 µM;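 active means activation above a per-plate cutoff, the mean activation of sample wells on that plate plus 3 SD, cut at about 8% in these data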
ASAP1 inh – inhibitors of human ASAP1 ArfGAP activity, primary screen, biochemical, fluorescence polarization | Arf-GAP with SH3 domain, ANK repeat and PH domain-containing protein 1 (Homo sapiens), … | ASAP1-stimulated ARF1 GTP hydrolysis, GDP FP detection | inhibition, % at 16.5 µM | hit rate 0.19% among 360,000 | AID 624377, 2012; in the data active means inhibition above about 25%;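 further: 0% = vehicle with enzyme and substrate and 100% = no enzyme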
ARFGAP1 inhibitor – inhibitors of rat ARFGAP1 GAP activity, primary screen, biochemical, fluorescence polarization, GDP tracer; ADP-ribosylation factor GTPase-activating protein 1 (Rattus norvegicus), Q62848; Arfgap1-stimulated ARF1 GTP hydrolysis, GDP FP detection; inhibition, % at 16.5 µM; hit rate 0.26% among 360,000; AID 651572, 2012;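 active means inhibition above a per-plate limit, mean inhibition of low control wells plus 3 SD, cut at about 25% in these data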;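 further: 0% = DMSO wells with enzyme and 100% = wells lacking Arfgap1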
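system = rat Arfgap1 catalytic domain, aa 1-136 | technique = FP, GDP Alexa 633 tracer displaced from anti-GDP antibody, 620/688 nm | compound = one concentration, 16.5 µM, DMSO 1.26% | medium = HEPES-based buffer, pH 7.5 | timing = compound-enzyme preincubation 20 min, reaction 120 min, detection 60 min, 25 °C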
UUG fidelity – yeast start codon fidelity modulation; AID 602363; activity score, % at 18.7 µM; S. cerevisiae UUG-firefly luciferase reporter, luminescence/redox ratio; 0.13% of 350,000 active;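 active means replicate mean at a twofold rise or more, about +100% in these data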;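 further: firefly luciferase made from a UUG start codon reports start codon fidelity; reporter light over untreated wells divided by growth signal over untreated wells; some hits fall short of that in this replicate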
CendR NRP1 mod – modulators of CendR peptide binding to NRP-1, primary screen, biochemical, fluorescence polarization, uHTS; inhibition, % at 25 µM; hit rate 0.85% among 360,000; FAM-RPARPAR peptide binding to NRP-1; Neuropilin-1 (Homo sapiens), O14786;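 active means inhibition or corrected inhibition above about 18%, plus a signal ratio from 0.5 to 1.5, limit read from the data, passing the limit was not always enough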
Starred values were filed as active, the others as inactive; x = not tested or not shown. Sampled rows, rich in hits. Any-hit rate of the full collection: about 2.3%.

The chains behind the UniProt entries cited, without tags or fusion partners.
Melanocortin receptor 4 (Homo sapiens), P32245, UniProt P32245, whole entry, looked up: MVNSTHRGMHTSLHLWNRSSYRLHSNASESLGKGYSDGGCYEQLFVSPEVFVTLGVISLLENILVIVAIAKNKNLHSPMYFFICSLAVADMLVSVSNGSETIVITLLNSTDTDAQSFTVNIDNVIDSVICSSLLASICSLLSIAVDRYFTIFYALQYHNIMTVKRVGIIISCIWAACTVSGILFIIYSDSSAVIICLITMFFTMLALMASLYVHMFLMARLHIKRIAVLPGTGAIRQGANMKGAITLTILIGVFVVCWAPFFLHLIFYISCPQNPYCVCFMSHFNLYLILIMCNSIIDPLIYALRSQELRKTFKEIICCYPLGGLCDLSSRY
ADP-ribosylation factor GTPase-activating protein 1 (Rattus norvegicus), Q62848, UniProt Q62848, whole entry, looked up: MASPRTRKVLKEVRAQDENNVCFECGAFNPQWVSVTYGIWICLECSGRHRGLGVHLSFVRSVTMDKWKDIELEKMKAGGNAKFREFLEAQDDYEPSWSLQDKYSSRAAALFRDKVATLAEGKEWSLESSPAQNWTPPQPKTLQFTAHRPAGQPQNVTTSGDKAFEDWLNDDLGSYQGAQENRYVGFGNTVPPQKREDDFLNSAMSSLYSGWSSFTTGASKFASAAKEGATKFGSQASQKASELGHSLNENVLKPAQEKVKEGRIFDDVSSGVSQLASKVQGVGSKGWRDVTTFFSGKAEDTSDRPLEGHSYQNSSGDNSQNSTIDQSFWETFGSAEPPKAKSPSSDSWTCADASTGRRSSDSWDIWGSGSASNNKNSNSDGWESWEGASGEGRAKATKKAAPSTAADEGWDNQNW
Neuropilin-1 (Homo sapiens), O14786, UniProt O14786, whole entry, looked up: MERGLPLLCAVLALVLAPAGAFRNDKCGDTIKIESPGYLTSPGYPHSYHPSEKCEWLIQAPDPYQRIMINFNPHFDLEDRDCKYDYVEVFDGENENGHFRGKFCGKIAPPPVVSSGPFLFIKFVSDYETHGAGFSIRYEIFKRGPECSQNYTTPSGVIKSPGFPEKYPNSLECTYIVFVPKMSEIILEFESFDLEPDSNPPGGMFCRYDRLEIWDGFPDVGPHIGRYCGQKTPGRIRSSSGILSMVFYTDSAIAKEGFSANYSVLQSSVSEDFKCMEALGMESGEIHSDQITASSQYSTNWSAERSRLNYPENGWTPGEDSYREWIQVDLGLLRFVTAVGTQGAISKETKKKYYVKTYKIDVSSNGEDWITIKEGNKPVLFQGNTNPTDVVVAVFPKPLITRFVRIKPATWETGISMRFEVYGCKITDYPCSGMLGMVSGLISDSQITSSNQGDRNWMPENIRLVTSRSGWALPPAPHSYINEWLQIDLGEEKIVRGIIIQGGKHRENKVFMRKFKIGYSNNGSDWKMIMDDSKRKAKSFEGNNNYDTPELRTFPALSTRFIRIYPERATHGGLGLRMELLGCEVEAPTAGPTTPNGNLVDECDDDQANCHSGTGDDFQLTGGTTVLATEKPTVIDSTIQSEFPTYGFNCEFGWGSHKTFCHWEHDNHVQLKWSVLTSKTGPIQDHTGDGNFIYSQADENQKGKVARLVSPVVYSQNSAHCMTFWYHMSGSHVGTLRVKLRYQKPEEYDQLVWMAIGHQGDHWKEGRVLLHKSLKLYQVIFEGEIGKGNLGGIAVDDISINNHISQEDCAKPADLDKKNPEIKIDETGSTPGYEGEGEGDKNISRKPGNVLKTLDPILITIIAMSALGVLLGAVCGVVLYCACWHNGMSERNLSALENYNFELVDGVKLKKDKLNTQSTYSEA

Sequence of screens – MC4R antag cAMP	MC4R barr agon	ASAP1 inh	ARFGAP1 inhibitor	UUG fidelity	CendR NRP1 mod
Cc1noc(C)c1S(=O)(=O)Nc1ccc2c(c1)C(=O)N([C@@H](C)CO)C[C@@H](C)[C@@H](CN(C)S(=O)(=O)c1cn(C)cn1)OCCCC[C@@H](C)O2
  x	x	x	x	-2.7	x
COc1ccc(CN2CCC(C(N)=O)CC2)cc1OCc1ccccc1
  1.7	-0.6	-9.4	-0.1	5.0	-3.1
CCOC(=O)C1CCCN(Cc2ccc(OC)c(OCc3ccccc3)c2)C1 (centres undefined)
  -2.3	-2.3	-14.0	-2.9	-1.7	22.8*
CCOC(=O)C1CCN(Cc2ccc3ccccc3c2)CC1
  -0.9	-1.3	-1.0	-16.8	-14.1	30.8*
COc1cc(OC)nc(NC(=O)COC(=O)c2cccc(Cl)c2)n1
  -7.5	6.9	8.6	-3.6	x	32.2*
O=C(O)C1C(C(=O)Nc2ccc(Cl)cc2)C2C=CC1C21CC1 (centres undefined)
  -3.0	-1.0	-4.7	0.5	-11.6	28.4*
CCOc1ccc(-c2nnc(SCC(=O)Nc3ccc4c(c3)c3ccccc3n4CC)n2N)cc1
  -6.0	30.3*	0.8	8.1	-3.4	-0.1
O=S(=O)(N[C@@H]1CC[C@@H](CCn2cc(-c3cccc(F)c3)nn2)O[C@@H]1CO)c1ccccc1
  x	x	x	x	-18.8	x
O=C(CC1C(=O)NCCN1Cc1cccc(Oc2ccccc2)c1)NCCCn1cccn1 (centres undefined)
  -3.9	-2.6	5.3	9.5	0.8	23.3*
O=C(CC1C(=O)NCCN1Cc1ccc(F)c(F)c1)NCCn1cccn1 (centres undefined)
  1.1	-3.7	-3.1	-6.1	-4.1	27.5*
Cc1ccc(S(=O)(=O)N2CCCCC2C(=O)O)s1 (centres undefined)
  4.2	0.3	-9.4	7.0	x	45.7*
Cc1ccc(S(=O)(=O)N2CCCC2C(=O)O)s1 (centres undefined)
  1.5	-1.7	-10.8	-10.1	5.4	10.8
C[C@H](CO)N1C[C@H](C)[C@@H](CN(C)C(=O)c2ccccn2)Oc2cc(C#Cc3ccccc3)ccc2S1(=O)=O
  x	x	x	x	-1.1	x
O=C(NCc1ccc(F)cc1)C1CCCN(S(=O)(=O)c2ccc(Br)s2)C1 (centres undefined)
  0.9	0.7	2.9	10.1	0.0	-0.7
O=C(NCc1ccc(F)cc1)C1CCN(S(=O)(=O)c2ccc(Br)s2)CC1
  -1.5	-1.3	5.8	11.7	-0.7	30.0*
C/C=C/c1ccc2c(c1)O[C@@H](CN(C)C(=O)Cc1ccncc1)[C@H](C)CN([C@H](C)CO)S2(=O)=O
  x	x	x	x	2.2	x
O=C(C[C@H]1C=C[C@H](NC(=O)Nc2ccccc2)[C@H](CO)O1)NCc1cccc(F)c1
  x	x	x	x	13.3	x
CCCc1cc(=O)oc2cc(C)cc(OCC(=O)NCCCn3ccnc3)c12
  6.4	-1.7	-4.1	9.6	-16.1	-1.1
Cc1cc(OCC(=O)NCCCn2ccnc2)c2c(C)cc(=O)oc2c1
  0.1	0.1	-6.1	9.8	-6.7	20.1*
COc1ccc(/C=N/Nc2cc(C)nc3ccc(Br)cc23)cc1
  7.0	15.7*	16.7	1.6	4.9	0.7
COc1ccc2nc(C)cc(N/N=C/c3cccc(OC)c3O)c2c1
  13.8	0.5	4.5	11.3	-4.7	-37.7
O=c1[nH][nH]c2cc(=O)n(-c3cccc(C(F)(F)F)c3)nc12
  17.6	-1.7	2.7	6.5	x	25.8*
Cc1ccc(-c2ccc3c(c2)O[C@H](CN(C)Cc2cccnc2)[C@H](C)CN([C@@H](C)CO)S3(=O)=O)cc1
  x	x	x	x	-1.0	x
COC(=O)CCC(=O)Nc1cccc2c(NC(=O)CCC(=O)OC)cccc12
  14.6	-0.5	7.5	-9.2	-3.5	20.7*

Three successive entries already listed, for reference:
Sequence of screens – MC4R antag cAMP	MC4R barr agon	ASAP1 inh	ARFGAP1 inhibitor	UUG fidelity	CendR NRP1 mod
O=c1[nH][nH]c2cc(=O)n(-c3cccc(C(F)(F)F)c3)nc12
  17.6	-1.7	2.7	6.5	x	25.8*
Cc1ccc(-c2ccc3c(c2)O[C@H](CN(C)Cc2cccnc2)[C@H](C)CN([C@@H](C)CO)S3(=O)=O)cc1
  x	x	x	x	-1.0	x
COC(=O)CCC(=O)Nc1cccc2c(NC(=O)CCC(=O)OC)cccc12
  14.6	-0.5	7.5	-9.2	-3.5	20.7*
